Here are results for one compound from US7803788B2, “Prodrugs of phosphonate nucoleotide analogues” (Gilead Sciences, Inc., priority 2000, dated 2010).

Series [1] can be described thus: Stability in human plasma. The format is in vitro ADME. The note with it: 37° C., TBS pH 7.5.
Series [2] deals with PLCE (porcine liver carboxyesterase). The series can be described thus: PLCE hydrolysis. Particulars: 37° C., PBS pH 7.4. The class given is in vitro ADME.

Turning to `CC(C)OC(=O)C(C)NP(=O)(COC(C)Cn1cnc2c(N)ncnc21)Oc1ccccc1` (single isomer, unassigned) [compound 4], the “Human Plasma Stability (HP) product” value in series [1] was “Met. Y”. Also, the PLCE hydrolysis product result in series [2] is reported as “Met. X & PMPA”.
